Earlier results in article PMC3594138 (Bioorganic & medicinal chemistry letters, 2013).

Tested on: isolated rat heart
Conditions: uptake-2 blocked pharmacologically; cited from earlier work

## [^11C]-(−)-m-hydroxyephedrine [[^11C]HED]
  Major Clearance T1/2: 1.1 ± 0.3 h
